Data on one substance can be found in patent US20140248641A1, “CLONED GLUCAGON-LIKE PEPTIDE-2 RECEPTORS” (NPS PHARMACEUTICALS, INC., priority 1997, published 2014).

By UniProt entry, the sequences of proteins in these tests, tags left out. Residues count along the entry.
UniProt P43220, 24-463, species assumed: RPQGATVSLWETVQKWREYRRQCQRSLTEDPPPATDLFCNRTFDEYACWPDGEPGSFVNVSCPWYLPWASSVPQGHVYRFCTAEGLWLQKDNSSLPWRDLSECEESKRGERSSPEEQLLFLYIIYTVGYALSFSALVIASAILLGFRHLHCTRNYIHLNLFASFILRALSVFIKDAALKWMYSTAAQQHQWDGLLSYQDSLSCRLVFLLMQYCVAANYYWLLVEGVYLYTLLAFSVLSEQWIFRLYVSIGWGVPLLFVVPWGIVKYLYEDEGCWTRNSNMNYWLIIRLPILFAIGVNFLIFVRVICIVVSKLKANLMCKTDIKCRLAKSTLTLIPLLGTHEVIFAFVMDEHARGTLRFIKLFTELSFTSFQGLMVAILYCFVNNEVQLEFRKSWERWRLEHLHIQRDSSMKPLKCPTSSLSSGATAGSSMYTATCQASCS

The target of this experiment is GLP-1 receptor (Homo sapiens, UniProt P43220). The experiment in a line: similar functional assay with the GLP-1 receptor. The class given is cell-based. The procedure: The functional assay was performed as follows: cAMP content for each extract was determined in duplicate by EIA (Enzyme ImmunoAssay) using the Amersham Biotrak cAMP EIA Kit (Amersham 225).

As for GLP-1 (7-36) amide, the “specificity at the GLP-1 receptor (functional assay)” value was “expected specificity for GLP-1 was observed”.
